Reference: PMC8123931 (Nature chemical biology, 2020)

System: RTK bait (MET, FGFR4, AXL, ALK, EGFR)

For `C[C@@H](Oc1cc(-c2cnn(C3CCNCC3)c2)cnc1N)c1c(Cl)ccc(F)c1Cl` [crizotinib], the bait expression was “some reduction in bait expression”.
